Experimental data as given in US8343760B2, “p53 activator peptides” (University of Maryland, Baltimore, priority 2008, dated 2013).

Test system: p53+/+ tumor cells
Experiment: Selective killing of p53+/+ tumor cells
Format: cell-based

## CC(C)C[C@@H](NC(=O)[C@@H](CC(C)C)NC(=O)[C@@H](CCCCN)NC(=O)[C@@H](CCC(=O)O)NC(=O)[C@@H](CC(C)C)NC(=O)[C@@H](CC(N)=O)NC(=O)[C@@H](C)NC(=O)[C@@H](Cc1ccc(O)cc1)NC(=O)[C@@H](Cc1c[nH]c2ccccc12)NC(=O)[C@@H](CC(N)=O)NC(=O)[C@H](N)[C@H](C)O)C(=O)N[C@H](CCCNC(=N)N)C(=O)O [D-PMI-8]
  killing of p53+/+ tumor cells: selectively kill p53^+/+ tumor cells in a concentration dependent manner
